From paper PMC11217458

Molecular target: human ACE2 (angiotensin-converting enzyme 2), full length, N-terminal FLAG tag (human) (UniProt Q9BYF1)
Test: cryo-EM structure; ACE2-SIT1 complex co-expressed and co-purified in GDN (20 mM HEPES pH 7.5, 150 mM NaCl, 0.02% GDN), incubated with 10 mM L-pipecolate or 10 mM glycine; single-particle cryo-EM, C2 symmetry for the 2:2 complexes

human ACE2 (angiotensin-converting enzyme 2), full length, N-terminal FLAG tag (from UniProt Q9BYF1 18-805) (natural protein; N-linked glycans at Asn90, Asn103, Asn322, Asn432, Asn546, Asn690; O-glycosylation at Thr730; N-linked glycans at Asn90, Asn103, Asn322, Asn432, Asn546, Asn690; O-glycosylation at Thr730; other documents disagree on this pair)
stoichiometry N: 2
